Experiments:
Test in all cases: cell-based or functional assay
[1] = target: T1, CCL5_HUMAN (human, UniProt P13501 24-91)
T1 sequence: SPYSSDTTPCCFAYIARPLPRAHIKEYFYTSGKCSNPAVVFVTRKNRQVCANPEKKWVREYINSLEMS

[2] = target: T2, CCL3_HUMAN (human, UniProt P10147 24-92)
T2 sequence: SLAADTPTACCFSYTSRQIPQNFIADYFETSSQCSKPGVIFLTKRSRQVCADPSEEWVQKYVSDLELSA

[3] = target: T3, CXCL1_HUMAN (human, UniProt P09341 35-107)
T3 sequence: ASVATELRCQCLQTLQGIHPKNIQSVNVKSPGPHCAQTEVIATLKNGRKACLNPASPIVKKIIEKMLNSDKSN

B1: P1243:G4S:P1156 (designed binder)
chain: RNHTEDNSTEYYDYEEARCACPARHLNNTNGTVLKLLGCHYFCNGTLCTAPDGYPCYNLTAQQVRTLTTYPNTSCAVGVCMKGTCVKNGTMEQCFKTPGGGGSADDDNELFTVQYCGMNCTKDEGGTWTGCTGKKEGCKCYHESGKNYGLCLSTEYTDFSQYGNPSDSEIEAAKPKRSDTLSH
- IC50, CCL5 induced THP-1 cell migration [1]: 6.8 nM
- IC50, CCL3 induced THP-1 cell migration [2]: 7 nM
- IC50, CXCL1 induced granulocyte cell migration [3]: 25.3 nM

— US20240034757A1 (OXFORD UNIVERSITY INNOVATION, published 2024)
